From PubChem BioAssay AID2227 (Johns Hopkins Ion Channel Center, 2009)
The list shows a part of the results, in another mix than the full data. Some results for these compounds are left out of this collection, so the calls shown say nothing about other tests. The source made the active and inactive calls.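 How the source made its calls: active means B-score of calcium response area above 5 SD of library B-scores, with initial fluorescence ratio within 5 SD of library; inactive means the rest.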

By UniProt entry, the sequences of proteins in these tests, tags left out.
UniProt Q9QUQ5, whole entry: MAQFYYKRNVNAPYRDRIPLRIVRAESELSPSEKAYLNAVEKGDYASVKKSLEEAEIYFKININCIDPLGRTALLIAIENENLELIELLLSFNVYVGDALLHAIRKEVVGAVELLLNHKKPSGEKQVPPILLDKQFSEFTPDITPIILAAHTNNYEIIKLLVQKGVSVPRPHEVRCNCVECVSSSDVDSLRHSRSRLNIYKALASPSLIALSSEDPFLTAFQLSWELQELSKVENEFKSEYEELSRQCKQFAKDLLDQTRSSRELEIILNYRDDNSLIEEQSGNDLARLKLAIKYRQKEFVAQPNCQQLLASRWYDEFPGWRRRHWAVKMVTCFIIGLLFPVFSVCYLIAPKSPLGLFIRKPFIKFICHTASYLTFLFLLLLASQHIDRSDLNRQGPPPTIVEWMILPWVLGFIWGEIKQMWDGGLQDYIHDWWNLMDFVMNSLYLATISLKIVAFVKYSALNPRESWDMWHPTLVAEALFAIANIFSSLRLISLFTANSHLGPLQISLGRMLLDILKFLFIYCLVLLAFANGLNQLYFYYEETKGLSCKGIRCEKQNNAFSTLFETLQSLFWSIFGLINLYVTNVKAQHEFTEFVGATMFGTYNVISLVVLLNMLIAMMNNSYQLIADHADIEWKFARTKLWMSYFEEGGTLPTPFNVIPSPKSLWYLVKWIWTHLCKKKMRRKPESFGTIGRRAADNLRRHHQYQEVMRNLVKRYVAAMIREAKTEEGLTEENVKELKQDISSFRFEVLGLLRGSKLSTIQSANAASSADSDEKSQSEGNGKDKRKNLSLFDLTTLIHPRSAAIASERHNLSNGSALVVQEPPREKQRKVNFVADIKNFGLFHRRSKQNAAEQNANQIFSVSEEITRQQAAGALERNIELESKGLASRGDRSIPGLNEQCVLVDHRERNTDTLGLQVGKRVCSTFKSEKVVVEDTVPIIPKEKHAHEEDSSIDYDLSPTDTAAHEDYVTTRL

molecular target: Short transient receptor potential channel 4 (Mus musculus) (UniProt Q9QUQ5); experiment: positive allosteric modulators of TRPC4, primary screen, cell-based, mouse TRPC4beta, HEK293 mu-opioid, Fluo-4 calcium (AID 2227); details: DAMGO EC20, Fluo-4 Ca2+ flux, at 10 µM

Q: How did the outcome turn out when CN1[C@@H]2CC[C@H]1CC(OC(=O)C(O)(c1ccccc1)c1ccccc1)C2 (some centres undefined) was run?
A: inactive

Q: O=C(NCC1(N2CCCCC2)CCCCC1)c1cc([N+](=O)[O-])ccc1Cl was tested. Which outcome did it give?
A: inactive

Q: Which outcome does the source give for Cc1ccc(C(=O)NCC2(N3CCCCC3)CCCCC2)cc1 here?
A: inactive

Q: Which outcome does the source give for COc1cc(SC)ccc1C(=O)NCC1(N(C)C)CCCCC1 here?
A: inactive

Q: For CCN(CC)CC(C)C(C)OC(=O)C(O)(c1ccccc1)c1ccccc1 (centres undefined), which outcome is on record?
A: inactive

Q: For CC(C)N1C(=O)CC2(CCN(CCOC(=O)C(O)(c3ccccc3)c3ccccc3)CC2)C1=O, which outcome is on record?
A: inactive

Q: For CN(C)C1CCCC1OC(=O)C(O)(c1ccccc1)c1ccccc1 (centres undefined), which outcome is on record?
A: inactive

Q: With CN(C)c1ccc(C(=O)NCC2(N(C)C)CCCCC2)cc1 as the compound, how does the outcome read?
A: inactive

Q: For Cc1ccccc1C(=O)NCC1(N2CCCCC2)CCCCC1, which outcome is on record?
A: inactive

Q: COc1ccc(C(=O)NCC2(N(C)C)CCCCC2)cc1 was tested. Which outcome did it give?
A: inactive

Q: For O=C(NCC1(N2CCCCC2)CCCCC1)c1cccc(Br)c1, which outcome is on record?
A: inactive

Q: Cc1cc(C(=O)NCC2(N3CCCCC3)CCCCC2)ccc1[N+](=O)[O-] was tested. Which outcome did it give?
A: inactive

Q: Which outcome does the source give for CCN1CCCC(OC(=O)C2(O)c3ccccc3C=Cc3ccccc32)C1 (centres undefined) here?
A: inactive

Q: For O=C(NCC1(N2CCCCC2)CCCCC1)c1cc(F)c(F)cc1Cl, which outcome is on record?
A: inactive

Q: With C=CCN1CCN(CCOC(=O)C(O)(c2ccccc2)c2ccccc2)CC1 as the compound, how does the outcome read?
A: inactive

Q: COc1cc(C(=O)NCC2(N(C)C)CCCCC2)c([N+](=O)[O-])cc1OC was tested. Which outcome did it give?
A: inactive

Q: Which outcome does the source give for CN(C)C1(CNC(=O)c2ccc(Br)cc2)CCCCC1 here?
A: inactive

Q: How did the outcome turn out when O=C(NCC1(N2CCCCC2)CCCCC1)c1cccc(Cl)c1 was run?
A: inactive

Q: Which outcome does the source give for COc1ccc(Cl)cc1C(=O)NCC1(N(C)C)CCCCC1 here?
A: inactive

Q: COc1cccc(C(=O)NCC2(N3CCCCC3)CCCCC2)c1 was tested. Which outcome did it give?
A: inactive

Q: O=C(OC1CN2CCC1CC2)C(CO)(c1ccccc1)c1ccccc1 (centres undefined) was tested. Which outcome did it give?
A: inactive

Q: CC(C)Oc1ccc(C(=O)NCC2(N(C)C)CCCCC2)cc1 was tested. Which outcome did it give?
A: inactive

Q: With CN(C)c1cccc(C(=O)NCC2(N(C)C)CCCCC2)c1 as the compound, how does the outcome read?
A: inactive

Q: How did the outcome turn out when COc1ccc(Br)c(C(=O)NCC2(N3CCCCC3)CCCCC2)c1 was run?
A: inactive
